Test results: US20010003002A1

Assays:
[1] = for Level of serum calcium, change after administration: 500 mg calcium oral after overnight fast, 4 h after load vs just before load, FIG. 1, mg/dl; for Level of urinary calcium, change after administration: urine 4 h after load vs two-hour fasting urine, FIG. 2, mg/dl GF
[2] = Bulk density of granulated PCC composition (Archimedean method); conditions: granulated material; examples written in present tense (paper examples)

Row | Substance | Level of serum calcium, change after administration [1] | Level of urinary calcium, change after administration ([1]; 500 mg calcium oral) | Experimental value of serum calcium versus placebo ([1]; 500 mg calcium oral, 4 h after load, FIG. 1) | Experimental value of urinary calcium versus placebo ([1]; 500 mg calcium oral, urine 4 h after load, FIG. 2) | Bulk density [2]
1 | calcium citrate | increased | increased |  |  | 
2 | potassium calcium citrate | increased | increased | Significantly higher | Significantly higher | about 1.05 g/cc
